Reference: US9738637B2, “Histone demethylase inhibitors” (Quanticel Pharmaceuticals, Inc., priority 2013, dated 2017)

Protein sequences, listed by entry. Tags and fused reporters are not part of them. Residues count along the entry.
UniProt P29375, 1-1090: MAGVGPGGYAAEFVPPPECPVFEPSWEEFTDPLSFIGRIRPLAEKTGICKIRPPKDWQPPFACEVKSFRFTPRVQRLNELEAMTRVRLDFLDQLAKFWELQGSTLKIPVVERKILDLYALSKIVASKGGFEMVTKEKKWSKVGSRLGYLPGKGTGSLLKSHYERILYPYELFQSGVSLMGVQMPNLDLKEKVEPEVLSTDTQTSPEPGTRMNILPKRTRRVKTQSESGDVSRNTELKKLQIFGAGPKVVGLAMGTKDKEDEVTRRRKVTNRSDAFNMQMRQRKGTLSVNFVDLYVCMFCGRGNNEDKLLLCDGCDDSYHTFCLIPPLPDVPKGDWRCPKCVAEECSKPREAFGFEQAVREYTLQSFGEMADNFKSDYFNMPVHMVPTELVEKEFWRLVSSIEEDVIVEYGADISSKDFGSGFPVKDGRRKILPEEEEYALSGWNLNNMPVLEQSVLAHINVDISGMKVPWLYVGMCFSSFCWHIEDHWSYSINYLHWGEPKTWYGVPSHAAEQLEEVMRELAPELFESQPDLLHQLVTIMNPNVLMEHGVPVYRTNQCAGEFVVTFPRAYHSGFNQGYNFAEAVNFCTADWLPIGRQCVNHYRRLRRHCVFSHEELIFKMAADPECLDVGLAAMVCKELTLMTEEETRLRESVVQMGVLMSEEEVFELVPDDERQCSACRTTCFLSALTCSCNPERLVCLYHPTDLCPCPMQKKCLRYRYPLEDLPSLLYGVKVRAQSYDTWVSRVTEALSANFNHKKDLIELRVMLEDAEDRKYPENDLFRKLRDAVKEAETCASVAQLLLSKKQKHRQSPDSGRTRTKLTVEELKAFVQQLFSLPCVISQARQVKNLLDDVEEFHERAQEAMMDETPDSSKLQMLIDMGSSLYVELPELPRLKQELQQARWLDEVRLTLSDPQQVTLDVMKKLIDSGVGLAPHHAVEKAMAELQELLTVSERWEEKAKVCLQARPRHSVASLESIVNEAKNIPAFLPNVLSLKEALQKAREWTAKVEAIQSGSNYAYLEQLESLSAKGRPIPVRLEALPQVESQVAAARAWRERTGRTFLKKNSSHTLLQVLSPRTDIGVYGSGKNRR
UniProt Q9UGL1, 2-751: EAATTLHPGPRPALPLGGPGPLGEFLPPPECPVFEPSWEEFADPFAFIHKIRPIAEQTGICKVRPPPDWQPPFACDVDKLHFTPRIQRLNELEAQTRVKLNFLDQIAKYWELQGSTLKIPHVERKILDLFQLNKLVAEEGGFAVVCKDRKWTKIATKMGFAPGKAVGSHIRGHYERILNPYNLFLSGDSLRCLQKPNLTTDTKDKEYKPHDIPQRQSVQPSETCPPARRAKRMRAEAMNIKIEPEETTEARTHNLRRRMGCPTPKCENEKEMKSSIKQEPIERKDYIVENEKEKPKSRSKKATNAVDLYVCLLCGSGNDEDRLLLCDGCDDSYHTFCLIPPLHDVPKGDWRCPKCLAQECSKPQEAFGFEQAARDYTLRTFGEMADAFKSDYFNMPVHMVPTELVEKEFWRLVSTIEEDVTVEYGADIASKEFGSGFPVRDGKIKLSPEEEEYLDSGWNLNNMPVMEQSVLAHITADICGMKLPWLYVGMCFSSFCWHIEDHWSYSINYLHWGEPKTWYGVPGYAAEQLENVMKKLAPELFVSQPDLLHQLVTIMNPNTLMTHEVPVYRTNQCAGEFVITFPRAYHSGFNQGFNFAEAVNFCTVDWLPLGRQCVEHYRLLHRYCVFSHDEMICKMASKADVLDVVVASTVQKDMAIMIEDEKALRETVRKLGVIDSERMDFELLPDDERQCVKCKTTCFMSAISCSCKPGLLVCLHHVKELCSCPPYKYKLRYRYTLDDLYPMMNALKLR
UniProt Q9H3R0, 2-372: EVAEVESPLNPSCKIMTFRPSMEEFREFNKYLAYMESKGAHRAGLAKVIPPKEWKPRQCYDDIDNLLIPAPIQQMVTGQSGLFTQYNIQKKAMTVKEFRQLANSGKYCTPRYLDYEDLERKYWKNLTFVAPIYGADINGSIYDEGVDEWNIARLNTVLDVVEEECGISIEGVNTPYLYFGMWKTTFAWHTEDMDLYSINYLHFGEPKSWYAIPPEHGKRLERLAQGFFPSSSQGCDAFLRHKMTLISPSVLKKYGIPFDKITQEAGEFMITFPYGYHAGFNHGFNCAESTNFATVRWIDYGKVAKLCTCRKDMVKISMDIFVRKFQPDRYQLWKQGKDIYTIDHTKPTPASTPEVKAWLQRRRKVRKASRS
UniProt O75164, 1-350: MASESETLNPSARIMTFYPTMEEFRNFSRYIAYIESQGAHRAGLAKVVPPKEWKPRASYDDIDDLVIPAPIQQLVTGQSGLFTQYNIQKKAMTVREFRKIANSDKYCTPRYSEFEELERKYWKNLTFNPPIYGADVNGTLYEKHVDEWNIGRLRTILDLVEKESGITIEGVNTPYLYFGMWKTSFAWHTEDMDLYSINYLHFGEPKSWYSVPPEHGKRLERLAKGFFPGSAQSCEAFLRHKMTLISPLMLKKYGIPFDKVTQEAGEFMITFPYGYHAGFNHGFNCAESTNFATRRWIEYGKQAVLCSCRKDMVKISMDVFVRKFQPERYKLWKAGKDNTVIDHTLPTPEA

Key:
Assay type in all cases: biochemical
Jarid1A = Jarid1A (Homo sapiens (Human), UniProt P29375); assay: Jarid1A in vitro enzyme inhibition assay (TR-FRET)
Description: (§1) This assay determines the ability of a test compound to inhibit Jarid1A, Jarid1B, JMJD2C, and JMJD2A demethylase activity.
The enzymatic assay of Jarid1A activity is based upon Time Resolved-Fluorescence Resonance Energy Transfer (TR-FRET) detection.
The assay reaction was initiated by the following: 2 μl of the mixture of 900 nM H3K4me3-biotin labeled peptide and 6 μM alpha-ketoglutaric acid with 2 μl of 11-point serial diluted inhibitor in 3% DMSO was added to each well of plate, followed by the addition of 2 μl of 3 nM Jarid1A to initiate the reaction. The reaction mixture was incubated at room temperature for 30 minutes, and terminated by the addition of 6 μl of 5 mM EDTA in LANCE detection buffer containing 50 nM Phycolink Streptavidin-allophycocyanin and 2 nM Europium-anti-H3K4me1-2 antibody.
(§2) The ability of the compounds disclosed herein to inhibit demethylase activity was quantified and the respective IC50 value was determined.

Jarid1B = Jarid1B (Homo sapiens (Human), UniProt Q9UGL1); assay: Jarid1B in vitro enzyme inhibition assay (TR-FRET)
Description: as §1
The reaction mixture was incubated at room temperature for 30 minutes, and terminated by the addition of 6 μl of 5 mM EDTA in LANCE detection buffer containing 50 nM Phycolink Streptavidin-allophycocyanin and 2 nM Europium-anti-H3K4me1-2 antibody.
as §2

JMJD2C = JMJD2C (Homo sapiens (Human), UniProt Q9H3R0); assay: JMJD2C in vitro enzyme inhibition assay (TR-FRET); details: read-out: IC50 JNJD2C
Description: as §1
(§3) Reaction product was determined quantitatively by TR-FRET after the addition of detection reagent Phycolink Streptavidin-allophycocyanin (Prozyme) and Europium-anti-di-methylated histone H3 lysine 9 (H3K9me2) antibody (PerkinElmer) in the presence of 5 mM EDTA in LANCE detection buffer (PerkinElmer) at a final concentration of 50 nM and 1 nM, respectively.
(§4) The assay reaction was initiated by the following: 2 μl of the mixture of 900 nM H3K9me3-biotin labeled peptide and 6 μM alpha-ketoglutaric acid with 2 μl of 11-point serial diluted inhibitor in 3% DMSO were added to each well of the plate, followed by the addition of 2 μl of 0.9 nM JMJD2C to initiate the reaction. The reaction mixture was incubated at room temperature for 30 minutes, and terminated by the addition of 6 μl of 5 mM EDTA in LANCE detection buffer containing 100 nM Phycolink Streptavidin-allophycocyanin and 2 nM Europium-anti-H3K9me2 antibody.
as §2

JMJD2A = JMJD2A (Homo sapiens (Human), UniProt O75164); assay: JMJD2A in vitro enzyme inhibition assay (TR-FRET)
Description: as §1, §3
as §4, with “well of plate, followed” for “well of the plate, followed”, “μl of 6 nM JMJD2A” for “μl of 0.9 nM JMJD2C”, “6 nM JMJD2A to initiate” for “0.9 nM JMJD2C to initiate”
as §2

For `COc1cc(Cc2cc3nccc(C(=O)O)c3[nH]2)ccc1Cl` [Example 128, 2-(4-chloro-3-methoxybenzyl)-1H-pyrrolo[3,2-b]pyridine-7-carboxylic acid], the IC50 (Jarid1A) was 1 to 10 µM, the IC50 (Jarid1B) was 1 to 10 µM and the IC50 (JMJD2C) was under 0.1 µM. It also gave an IC50 (JMJD2A) of 0.1 to 1 µM.
